{
  "sequences": {"note": "By UniProt entry, the sequences of proteins in these tests, tags left out.", "UniProt P51532, whole entry": "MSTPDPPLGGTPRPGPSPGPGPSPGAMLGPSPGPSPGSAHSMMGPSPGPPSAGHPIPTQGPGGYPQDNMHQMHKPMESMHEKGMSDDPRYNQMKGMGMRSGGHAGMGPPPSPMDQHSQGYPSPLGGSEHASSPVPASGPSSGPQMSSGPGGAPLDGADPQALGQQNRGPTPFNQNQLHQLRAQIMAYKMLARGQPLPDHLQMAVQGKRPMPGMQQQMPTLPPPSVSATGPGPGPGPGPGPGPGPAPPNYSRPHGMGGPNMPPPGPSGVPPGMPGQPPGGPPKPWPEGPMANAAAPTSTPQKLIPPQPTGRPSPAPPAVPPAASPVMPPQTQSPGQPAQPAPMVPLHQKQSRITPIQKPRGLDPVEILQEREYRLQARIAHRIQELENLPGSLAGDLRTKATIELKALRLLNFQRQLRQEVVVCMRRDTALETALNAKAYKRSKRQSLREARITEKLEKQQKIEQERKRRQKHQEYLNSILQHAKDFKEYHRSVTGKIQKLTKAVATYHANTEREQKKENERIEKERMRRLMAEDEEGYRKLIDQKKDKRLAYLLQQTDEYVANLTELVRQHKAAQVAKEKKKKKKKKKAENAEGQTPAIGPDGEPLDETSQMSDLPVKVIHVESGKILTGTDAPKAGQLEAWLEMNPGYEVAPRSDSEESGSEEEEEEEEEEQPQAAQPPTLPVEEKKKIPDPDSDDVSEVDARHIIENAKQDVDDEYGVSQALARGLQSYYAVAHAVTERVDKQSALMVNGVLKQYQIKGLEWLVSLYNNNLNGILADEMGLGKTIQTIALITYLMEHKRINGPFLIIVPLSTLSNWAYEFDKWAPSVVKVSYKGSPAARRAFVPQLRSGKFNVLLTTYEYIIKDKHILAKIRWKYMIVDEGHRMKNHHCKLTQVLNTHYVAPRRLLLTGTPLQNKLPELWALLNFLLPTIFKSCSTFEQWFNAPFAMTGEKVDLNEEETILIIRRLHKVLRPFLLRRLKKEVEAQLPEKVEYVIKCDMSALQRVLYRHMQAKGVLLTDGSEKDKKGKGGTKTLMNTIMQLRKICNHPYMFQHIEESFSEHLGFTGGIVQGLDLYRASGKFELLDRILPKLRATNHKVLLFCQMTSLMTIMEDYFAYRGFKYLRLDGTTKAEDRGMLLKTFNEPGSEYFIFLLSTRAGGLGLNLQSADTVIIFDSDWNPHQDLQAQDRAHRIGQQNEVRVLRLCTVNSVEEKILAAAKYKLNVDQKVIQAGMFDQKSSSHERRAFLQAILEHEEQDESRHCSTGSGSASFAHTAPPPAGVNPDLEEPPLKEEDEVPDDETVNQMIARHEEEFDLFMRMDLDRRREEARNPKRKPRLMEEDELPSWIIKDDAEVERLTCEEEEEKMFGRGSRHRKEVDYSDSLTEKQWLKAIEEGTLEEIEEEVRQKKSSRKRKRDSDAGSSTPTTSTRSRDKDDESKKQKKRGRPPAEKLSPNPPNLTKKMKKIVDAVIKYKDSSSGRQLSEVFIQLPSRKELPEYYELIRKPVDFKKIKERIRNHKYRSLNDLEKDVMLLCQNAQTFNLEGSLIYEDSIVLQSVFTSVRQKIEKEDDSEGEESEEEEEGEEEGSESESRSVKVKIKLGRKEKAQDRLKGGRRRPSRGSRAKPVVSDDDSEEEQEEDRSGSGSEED", "UniProt P51531, whole entry": "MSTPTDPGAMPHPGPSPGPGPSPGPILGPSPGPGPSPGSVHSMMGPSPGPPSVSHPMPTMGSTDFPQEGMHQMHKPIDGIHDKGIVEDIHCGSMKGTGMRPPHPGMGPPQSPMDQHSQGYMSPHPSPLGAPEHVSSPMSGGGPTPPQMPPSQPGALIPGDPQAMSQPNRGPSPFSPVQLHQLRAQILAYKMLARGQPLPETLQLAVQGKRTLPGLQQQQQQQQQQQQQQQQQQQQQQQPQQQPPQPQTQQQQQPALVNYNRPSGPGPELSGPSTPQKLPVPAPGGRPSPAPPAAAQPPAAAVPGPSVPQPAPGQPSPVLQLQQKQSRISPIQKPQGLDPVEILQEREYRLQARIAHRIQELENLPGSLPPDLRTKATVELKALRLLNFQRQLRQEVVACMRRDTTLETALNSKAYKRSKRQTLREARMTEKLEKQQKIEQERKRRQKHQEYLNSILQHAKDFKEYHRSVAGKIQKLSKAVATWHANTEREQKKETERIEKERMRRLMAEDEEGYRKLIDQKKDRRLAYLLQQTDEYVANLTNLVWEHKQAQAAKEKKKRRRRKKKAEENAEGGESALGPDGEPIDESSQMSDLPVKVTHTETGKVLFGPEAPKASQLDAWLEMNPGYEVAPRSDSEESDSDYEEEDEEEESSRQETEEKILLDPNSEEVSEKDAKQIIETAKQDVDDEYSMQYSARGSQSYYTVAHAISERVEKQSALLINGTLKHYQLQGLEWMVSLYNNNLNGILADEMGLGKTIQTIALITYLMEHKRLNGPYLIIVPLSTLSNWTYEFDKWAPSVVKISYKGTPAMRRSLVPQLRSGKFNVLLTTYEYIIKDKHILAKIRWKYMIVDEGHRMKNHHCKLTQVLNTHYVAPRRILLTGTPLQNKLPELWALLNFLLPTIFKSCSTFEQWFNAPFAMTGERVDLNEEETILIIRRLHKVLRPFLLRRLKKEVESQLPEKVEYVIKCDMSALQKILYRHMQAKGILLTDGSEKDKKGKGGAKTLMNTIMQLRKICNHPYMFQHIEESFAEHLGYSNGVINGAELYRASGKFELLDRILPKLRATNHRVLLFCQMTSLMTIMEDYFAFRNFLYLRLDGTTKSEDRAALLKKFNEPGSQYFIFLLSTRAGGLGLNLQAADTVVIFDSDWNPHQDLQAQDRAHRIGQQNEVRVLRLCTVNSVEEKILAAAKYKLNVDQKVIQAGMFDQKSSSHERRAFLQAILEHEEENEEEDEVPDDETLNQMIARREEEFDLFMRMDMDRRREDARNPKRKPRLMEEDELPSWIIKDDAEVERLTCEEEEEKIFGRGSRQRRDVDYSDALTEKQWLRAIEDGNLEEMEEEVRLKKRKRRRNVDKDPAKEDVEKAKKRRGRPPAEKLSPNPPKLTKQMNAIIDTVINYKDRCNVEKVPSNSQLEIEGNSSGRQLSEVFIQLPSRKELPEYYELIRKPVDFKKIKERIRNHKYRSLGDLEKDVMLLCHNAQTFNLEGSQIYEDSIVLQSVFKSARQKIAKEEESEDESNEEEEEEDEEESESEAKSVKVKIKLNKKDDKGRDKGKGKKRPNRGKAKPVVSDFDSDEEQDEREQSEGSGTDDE"},
  "source": "patent US20240024488A1",
  "about": "“COMPOUNDS AND USES THEREOF” (Foghorn Therapeutics Inc., priority 2020, published 2024)",
  "key": {"[1]": {"molecular_target": "HiBit-BRG1 fusion protein (Homo sapiens, UniProt P51532)", "assay": "HiBiT-BRG1 cell-based degradation assay (Nano-Glo HiBiT Lytic Detection, 24 h)", "conditions": "for BRG1 HiBit Degradation Maximum (%): HeLa cell line expressing HiBit-BRG1 and LgBit; for IC50: read-out: BRMG1 HiBit Degradation IC50, HeLa cell line expressing HiBit-BRG1 and LgBit"}, "HiBit-BRM fusion protein": {"molecular_target": "HiBit-BRM fusion protein (Homo sapiens, UniProt P51531)", "assay": "HiBiT-BRM cell-based degradation assay (Nano-Glo HiBiT Lytic Detection, 24 h)", "conditions": "for BRM HiBit Degradation Maximum (%): HeLa cell line expressing HiBiT-BRM; for IC50: read-out: BRM HiBit Degradation IC50, HeLa cell line expressing HiBiT-BRM"}},
  "data": [
    {"smiles": "Cc1ncsc1-c1ccc([C@H](C)NC(=O)[C@@H]2C[C@@H](O)CN2C(=O)[C@@H](c2cc(OCCN3C[C@H]4C[C@H](c5c(C)[nH]c6nnc(-c7ccccc7O)cc56)C[C@H]4C3)no2)C(C)C)cc1", "values": [
      {"measurement": "BRG1 HiBit Degradation Maximum (%)", "setting": "[1]", "result": "B (“B” indicates maximum degradation ≥ 50%)"},
      {"measurement": "IC50", "setting": "[1]", "result": "> 10", "unit": "nM"},
      {"measurement": "BRM HiBit Degradation Maximum (%)", "setting": "HiBit-BRM fusion protein", "result": "A (“A” indicates maximum degradation ≥ 75%)"},
      {"measurement": "IC50", "setting": "HiBit-BRM fusion protein", "result": "< 10", "unit": "nM"}
    ]},
    {"smiles": "Cc1ncsc1-c1ccc([C@H](C)NC(=O)[C@@H]2C[C@@H](O)CN2C(=O)[C@@H](c2cc(N3CCC(N[C@H]4CCc5[nH]c6nnc(-c7ccccc7O)cc6c5C4)CC3)no2)C(C)C)cc1", "values": [
      {"measurement": "BRG1 HiBit Degradation Maximum (%)", "setting": "[1]", "result": "B (“B” indicates maximum degradation ≥ 50%)"},
      {"measurement": "IC50", "setting": "[1]", "result": "> 100", "unit": "nM"},
      {"measurement": "BRM HiBit Degradation Maximum (%)", "setting": "HiBit-BRM fusion protein", "result": "A (“A” indicates maximum degradation ≥ 75%)"},
      {"measurement": "IC50", "setting": "HiBit-BRM fusion protein", "result": "> 100", "unit": "nM"}
    ]},
    {"smiles": "Cc1ncsc1-c1ccc([C@H](C)NC(=O)[C@@H]2C[C@@H](O)CN2C(=O)[C@@H](c2cc(N3CCC(N[C@@H]4CCc5[nH]c6nnc(-c7ccccc7O)cc6c5C4)CC3)no2)C(C)C)cc1", "values": [
      {"measurement": "BRG1 HiBit Degradation Maximum (%)", "setting": "[1]", "result": "C (“C” indicates maximum degradation < 50%)"},
      {"measurement": "BRM HiBit Degradation Maximum (%)", "setting": "HiBit-BRM fusion protein", "result": "A (“A” indicates maximum degradation ≥ 75%)"},
      {"measurement": "IC50", "setting": "HiBit-BRM fusion protein", "result": "> 100", "unit": "nM"}
    ]}
  ]
}
